Some compounds may have been tested in ways that are not shown here.
Assays:
[1] = biological target: human rec ACSS2 (Homo sapiens (Human), UniProt Q9NR19); assay: Biochemical activity ACSS2 assay (AMP-Glo); settings: read-out: IC50 biochemical; human recombinant ACSS2, AMP-Glo, 180 min at 37° C.
[2] = biological target: ACSS2 (Homo sapiens (Human), UniProt Q9NR19); assay: Cellular assay of 14C acetate incorporation into histones (IC50 ACSS2 cellular histone); settings: read-out: IC50 cellular Histone, HCT-15 cells

Chains of the proteins cited; added tags and fusions are not shown.
UniProt Q9NR19, whole entry: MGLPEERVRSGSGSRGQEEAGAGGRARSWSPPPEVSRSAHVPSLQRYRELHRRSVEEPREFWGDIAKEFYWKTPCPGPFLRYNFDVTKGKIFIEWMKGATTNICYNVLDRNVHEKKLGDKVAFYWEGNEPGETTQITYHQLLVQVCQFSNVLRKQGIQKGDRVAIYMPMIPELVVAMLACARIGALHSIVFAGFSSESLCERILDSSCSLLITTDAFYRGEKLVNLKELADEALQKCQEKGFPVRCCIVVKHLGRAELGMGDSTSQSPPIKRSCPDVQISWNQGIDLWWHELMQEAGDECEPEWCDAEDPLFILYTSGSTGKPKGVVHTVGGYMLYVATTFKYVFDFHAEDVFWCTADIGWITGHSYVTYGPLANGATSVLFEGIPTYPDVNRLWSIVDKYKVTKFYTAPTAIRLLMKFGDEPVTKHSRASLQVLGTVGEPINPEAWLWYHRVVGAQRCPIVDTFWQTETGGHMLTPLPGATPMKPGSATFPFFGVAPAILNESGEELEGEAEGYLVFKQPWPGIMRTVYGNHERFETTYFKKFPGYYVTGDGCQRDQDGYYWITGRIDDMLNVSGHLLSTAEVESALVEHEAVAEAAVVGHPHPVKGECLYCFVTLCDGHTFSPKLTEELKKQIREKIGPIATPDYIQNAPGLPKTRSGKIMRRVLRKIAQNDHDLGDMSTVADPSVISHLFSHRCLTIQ

## COc1nc2nc(C(O)(c3ccccc3)c3ccccc3)n(CCN)c2cc1-c1nnn[nH]1
[1]
  IC50: 10 to 100 nM
[2]
  IC50: 100 to 10000 nM
